Antibody variant affinities, Ab-14 heavy chain, assay B

Data: MIT Lincoln Laboratory AlphaSeq set, Li et al. 2023, doi:10.1038/s41467-023-39022-2, as distributed in FLAb.

Binding partner: SARS-CoV-2 spike HR2 peptide, sequence PDVDLGDISGINAS.

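Phage display of a naive human antibody library on the peptide gave the parent. This is the validation round: designs drawn from the data on random variants, tested in the same kind of assay. Group labels follow the data file (Ctrl: baseline library sampled from a position-specific scoring matrix, with some repeated check sequences; GP: Gaussian process model; GPLM: also part of the Gaussian process libraries; HC: hill climbing; Gen: genetic algorithm; Gibbs: Gibbs sampling; a sequence that several methods proposed may carry one label only). The scFvs were displayed on barcoded MATa yeast, the peptide on MATalpha yeast. After mating in shaken culture at 30 °C for 16 h, diploids were selected and their barcode pairs sequenced. Scores were corrected for input abundance and mapped to Kd with protein pairs of known affinity run in the same pool. The assay was run in six technical replicates.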

The variants keep the light chain, the linker and the frameworks of Ab-14 (scFv order VH, a 15-residue (Gly4Ser)3 linker, VL).
VH: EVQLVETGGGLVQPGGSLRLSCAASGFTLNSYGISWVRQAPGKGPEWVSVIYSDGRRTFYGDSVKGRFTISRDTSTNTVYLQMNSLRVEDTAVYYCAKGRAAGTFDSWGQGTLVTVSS
VL: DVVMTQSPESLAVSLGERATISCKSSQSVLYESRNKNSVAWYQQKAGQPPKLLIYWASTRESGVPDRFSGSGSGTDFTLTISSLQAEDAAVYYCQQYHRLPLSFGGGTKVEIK

Positions count from residue 1 of the parent VH; G26K puts K in place of G. Variants here have at most six changes. The read-out is the apparent dissociation constant on a log10 scale (nM): the lower, the stronger. Averages over replicates are reported, and they cover detected replicates only. A pair that was not seen in that replicate is written "ND"; this usually means weak binding, but a binder can also be missed. The authors averaged sequences with at least three values out of six and counted those with two or fewer as poor binders. The range of this assay differs from that of the first round, and the authors advise against merging the two. A sequence that the file lists under several names has all its replicates listed entry by entry, parted by semicolons. Nonspecific signal, from three strains lacking the peptide, appeared in 1% of pairings of all heavy chain designs, centred on 2.08 (5% of these signals below 0.84); values are not corrected for it. The control count says in how many pairings with the empty strains this scFv gave a signal.

The variant G26K T28S G61A R100E [GPLM_Gen] gave 0.69, 0.70, 1.03, 0.65, 0.73, 0.70 (mean 0.75; controls 0 of 18).
The variant D62N R100K A101E T104N [Ctrl] gave ND, ND, ND, ND, ND, ND (controls 0 of 18).
The variant T28N G61I A101I [GP_HC] gave -0.07, ND, ND, ND, ND, ND (controls 0 of 18).
The variant G61A R100K A101L [GPLM_Gibbs] gave 0.91, 0.90, 0.79, 0.99, 0.33, 0.53 (mean 0.74; controls 0 of 18).
The variant T28S G61H S63D A101T [GP_Gibbs] gave 0.29, 0.09, -0.48, -0.36, 0.06, -0.08 (mean -0.08; controls 0 of 18).
The variant T28S F59A A101L [GPLM_Gen] gave 1.72, 1.22, 1.16, 1.43, ND, 3.12 (mean 1.73; controls 1 of 18).
The variant T28S G61D [GPLM_Gen] gave ND, ND, ND, ND, ND, ND (controls 0 of 18).
The variant T28S S63D A101N [GP_Gen] gave ND, ND, ND, ND, ND, ND (controls 0 of 18).
The variant T28V S31E A101Q [GPLM_Gen] gave ND, ND, ND, ND, ND, ND (controls 0 of 18).
The variant T28G S31E A101N [GPLM_Gen] gave 0.30, 0.43, 0.31, 0.09, 0.42, 0.21 (mean 0.29; controls 1 of 18).
The variant N30D A101N S107R [GP_HC] gave 1.52, 1.77, 1.35, 1.22, 1.66, 1.37 (mean 1.48; controls 0 of 18).
The variant R56K T58C A101P [Ctrl] gave ND, ND, ND, ND, ND, ND (controls 2 of 18).
The variant F59A R100I T104H S107L [Ctrl] gave -0.23, 0.63, 0.10, 0.54, -0.06, -0.02 (mean 0.16; controls 0 of 18).
The variant S53A A102L [Ctrl] gave ND, ND, ND, ND, ND, ND (controls 0 of 18).
The variant T28S S31E G61A R100T [GPLM_Gen] gave 0.80, 0.31, 0.48, 0.01, 0.17, 0.55 (mean 0.39; controls 0 of 18).
The variant T28S G61A R100V A101T [GPLM_Gen] gave -0.49, 0.36, 0.02, -0.06, 0.88, 0.09 (mean 0.14; controls 0 of 18).
The variant T58A R100W [Ctrl] gave ND, ND, ND, 2.14, ND, ND (controls 0 of 18).
The variant T28P S31E A101S S107T [GP_Gibbs] gave 0.83, 0.59, 0.71, 0.43, 1.13, 0.71 (mean 0.73; controls 0 of 18).
The variant G26L T28S S31D G61S [Ctrl] gave 1.48, 1.43, 1.01, 1.67, 1.91, 1.50 (mean 1.50; controls 0 of 18).
The variant T28W S31D S53A R100N [GP_HC] gave ND, 1.97, 0.93, 0.45, 0.27, 0.77 (mean 0.88; controls 0 of 18).
The variant T28D S63K R100K S107L [GP_Gibbs] gave 0.50, 0.52, 0.90, 0.70, 0.46, 0.78 (mean 0.64; controls 0 of 18).
The variant S31Q A101N [Ctrl] gave 1.05, 1.48, ND, 0.20, 0.32, 0.10 (mean 0.63; controls 0 of 18).
The variant T28D S31N R100Q [GPLM_Gen] gave -0.01, -0.19, 0.77, 0.23, 0.58, 0.30 (mean 0.28; controls 0 of 18).
The variant S31D F59W G61M [GP_HC] gave ND, 1.22, ND, ND, 0.26, 2.89 (mean 1.46; controls 1 of 18).
The variant N30E S31N S53A [Ctrl+GP_HC] gave -0.18, 0.09, 0.13, 0.16, -0.17, -0.08; 0.47, 0.37, 0.72, -0.02, 0.19, 0.48 (mean 0.18; controls 1 of 36).
The variant R56I A101E [Ctrl] gave 0.31, -0.29, -0.19, -0.47, -0.16, -0.16 (mean -0.16; controls 0 of 18).
The variant T28D F59A S63T A101N [GP_Gibbs] gave 0.00, -0.32, -0.32, -0.20, -0.37, -0.16 (mean -0.23; controls 0 of 18).
The variant S31E G61K A101C [GPLM_HC] gave ND, ND, ND, ND, ND, ND (controls 0 of 18).
The variant S31E G61S A102G D106T [GPLM_HC] gave ND, ND, ND, ND, ND, 2.29 (controls 0 of 18).
The variant T28S S31E G61C G103V [GP_HC] gave ND, ND, ND, 1.09, ND, ND (controls 0 of 18).
The variant F27M T28D G61S S63Q A101T [GP_Gibbs] gave 0.04, -0.55, -0.28, -0.42, -0.49, 0.13 (mean -0.26; controls 0 of 18).
The variant A102P [Ctrl] gave 1.00, 1.95, 1.31, 1.50, 1.20, 1.48 (mean 1.41; controls 0 of 18).
The variant S31D G61A S63Q T104L [Ctrl] gave ND, ND, ND, ND, ND, ND (controls 0 of 18).
The variant T28D T104Y D106W [GPLM_HC] gave ND, ND, ND, ND, ND, ND (controls 0 of 18).
The variant N30E S53A S63R S107V [GP_Gibbs] gave ND, 1.43, ND, ND, 1.11, 0.72 (mean 1.09; controls 0 of 18).
The variant T28E S63N A101T [GPLM_Gibbs] gave 0.16, -0.47, -0.34, -0.29, -0.20, 0.06 (mean -0.18; controls 0 of 18).
The variant T28D S63Q R100Q A101I [GP_Gen] gave 0.71, 0.78, 0.49, 0.37, 0.20, 0.35 (mean 0.48; controls 1 of 18).
The variant G26D G61A R100Q A101L [GP_HC] gave 1.47, 0.99, 0.75, 2.06, ND, ND (mean 1.32; controls 0 of 18).
The variant T28E A101T S107V [GPLM_Gibbs] gave 0.41, 0.75, 0.15, 0.41, 0.22, 1.42 (mean 0.56; controls 0 of 18).
The variant T28S G61K R100K A101T [GPLM_Gen] gave ND, 1.84, 0.78, 1.00, 1.01, 2.34 (mean 1.40; controls 0 of 18).
The variant T28D R100Q T104S [GPLM_HC] gave ND, ND, ND, ND, 2.48, 1.96 (mean 2.22; controls 0 of 18).

Top 2 of the variants detected in all replicates, tightest first:

changes	group	replicates, log10 nM	log10 Kd (nM), mean	control signals
F27M T28D G61S S63Q A101T	GP_Gibbs	0.04, -0.55, -0.28, -0.42, -0.49, 0.13	-0.26	0/18
T28D F59A S63T A101N	GP_Gibbs	0.00, -0.32, -0.32, -0.20, -0.37, -0.16	-0.23	0/18